Permeability data for macrocyclic peptides

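Conditions beyond the assay type are not listed; see the original paper. The list need not hold all peptides of the study. Peptides that the database sets to -10, its floor, are left out.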

PAMPA is the parallel artificial membrane permeability assay, which has no cells and reads passive diffusion. MDCK values are permeabilities across Madin-Darby canine kidney cell monolayers. Permeability is given as log10 of P in cm/s; higher (less negative) is more permeable.

The entry for CC(=O)N1CCC[C@@H]1C(=O)N(C)[C@H](CC(C)C)C(=O)N[C@@H]1C(=O)N(C)[C@@H](CC(C)C)C(=O)N(C)[C@@H](CC(C)C)C(=O)N[C@@H](CC(C)C)C(=O)N[C@@H](C)C(=O)N[C@H](CC(C)C)C(=O)N2CCC[C@H]2C(=O)O[C@@H]1C lists PAMPA -7.10 (log10 cm/s).
The entry for CC(=O)N1CCC[C@H]1C(=O)N(C)[C@@H](CC(C)C)C(=O)N[C@@H]1C(=O)N(C)[C@@H](CC(C)C)C(=O)N(C)[C@H](CC(C)C)C(=O)N(C)[C@@H](CC(C)C)C(=O)N[C@@H](C)C(=O)N[C@H](CC(C)C)C(=O)N2CCC[C@@H]2C(=O)O[C@@H]1C lists PAMPA -5.34 (log10 cm/s).
The entry for CC(=O)N1CCC[C@@H]1C(=O)N(C)[C@@H](CC(C)C)C(=O)N[C@@H]1C(=O)N(C)[C@H](CC(C)C)C(=O)N[C@H](CC(C)C)C(=O)N[C@H](CC(C)C)C(=O)N(C)[C@@H](C)C(=O)N[C@H](CC(C)C)C(=O)N2CCC[C@H]2C(=O)O[C@@H]1C lists PAMPA -5.68 (log10 cm/s).
The entry for CC(=O)N1CCC[C@H]1C(=O)N(C)[C@@H](CC(C)C)C(=O)N[C@@H]1C(=O)N(C)[C@H](CC(C)C)C(=O)N(C)[C@@H](CC(C)C)C(=O)N(C)[C@H](CC(C)C)C(=O)N(C)[C@H](C)C(=O)N[C@@H](CC(C)C)C(=O)N2CCC[C@H]2C(=O)O[C@@H]1C lists PAMPA -5.24 (log10 cm/s).
The entry for CC(=O)N[C@@H]1C(=O)N2CCC[C@H]2C(=O)N(C)[C@H](CC(C)C)C(=O)N[C@H](CC(C)C)C(=O)N[C@@H](CC(C)C)C(=O)N[C@H](CC(C)C)C(=O)N[C@@H](C)C(=O)N[C@@H](CC(C)C)C(=O)N2CCC[C@@H]2C(=O)O[C@@H]1C lists PAMPA -7.17 (log10 cm/s).
The entry for CC(=O)N1CCC[C@H]1C(=O)N(C)[C@H](CC(C)C)C(=O)N[C@@H]1C(=O)N[C@@H](CC(C)C)C(=O)N(C)[C@H](CC(C)C)C(=O)N(C)[C@@H](CC(C)C)C(=O)N(C)[C@@H](C)C(=O)N[C@H](CC(C)C)C(=O)N2CCC[C@@H]2C(=O)O[C@@H]1C lists PAMPA -5.39 (log10 cm/s).
The entry for CC(=O)N1CCC[C@@H]1C(=O)N(C)[C@H](CC(C)C)C(=O)N[C@@H]1C(=O)N(C)[C@H](CC(C)C)C(=O)N(C)[C@@H](CC(C)C)C(=O)N(C)[C@H](CC(C)C)C(=O)N(C)[C@H](C)C(=O)N[C@H](CC(C)C)C(=O)N2CCC[C@H]2C(=O)O[C@@H]1C lists PAMPA -5.43 (log10 cm/s).
The entry for CC(=O)N1CCC[C@H]1C(=O)N(C)[C@@H](CC(C)C)C(=O)N[C@@H]1C(=O)N(C)[C@@H](CC(C)C)C(=O)N(C)[C@@H](CC(C)C)C(=O)N(C)[C@H](CC(C)C)C(=O)N(C)[C@@H](C)C(=O)N[C@@H](CC(C)C)C(=O)N2CCC[C@H]2C(=O)O[C@@H]1C lists PAMPA -5.29 (log10 cm/s).
The entry for CC(=O)N1CCC[C@@H]1C(=O)N(C)[C@H](CC(C)C)C(=O)N[C@@H]1C(=O)N(C)[C@H](CC(C)C)C(=O)N(C)[C@@H](CC(C)C)C(=O)N(C)[C@@H](CC(C)C)C(=O)N[C@@H](C)C(=O)N[C@H](CC(C)C)C(=O)N2CCC[C@H]2C(=O)O[C@@H]1C lists PAMPA -5.01 (log10 cm/s) and MDCK -5.12 (log10 cm/s).
The entry for CC(=O)N1CCC[C@@H]1C(=O)N(C)[C@H](CC(C)C)C(=O)N[C@@H]1C(=O)N(C)[C@H](CC(C)C)C(=O)N[C@@H](CC(C)C)C(=O)N[C@@H](CC(C)C)C(=O)N(C)[C@@H](C)C(=O)N[C@@H](CC(C)C)C(=O)N2CCC[C@H]2C(=O)O[C@@H]1C lists PAMPA -6.80 (log10 cm/s).
The entry for CC(=O)N1CCC[C@H]1C(=O)N(C)[C@H](CC(C)C)C(=O)N[C@@H]1C(=O)N[C@@H](CC(C)C)C(=O)N(C)[C@H](CC(C)C)C(=O)N[C@H](CC(C)C)C(=O)N(C)[C@H](C)C(=O)N[C@H](CC(C)C)C(=O)N2CCC[C@H]2C(=O)O[C@@H]1C lists PAMPA -6.21 (log10 cm/s).
The entry for CC(=O)N1CCC[C@@H]1C(=O)N(C)[C@H](CC(C)C)C(=O)N[C@@H]1C(=O)N(C)[C@@H](CC(C)C)C(=O)N[C@H](CC(C)C)C(=O)N[C@H](CC(C)C)C(=O)N[C@H](C)C(=O)N[C@H](CC(C)C)C(=O)N2CCC[C@@H]2C(=O)O[C@@H]1C lists PAMPA -7.22 (log10 cm/s).
The entry for CC(=O)N1CCC[C@H]1C(=O)N(C)[C@@H](CC(C)C)C(=O)N[C@@H]1C(=O)N[C@@H](CC(C)C)C(=O)N(C)[C@H](CC(C)C)C(=O)N[C@H](CC(C)C)C(=O)N[C@@H](C)C(=O)N[C@@H](CC(C)C)C(=O)N2CCC[C@H]2C(=O)O[C@@H]1C lists PAMPA -6.68 (log10 cm/s).
The entry for CC(=O)N1CCC[C@H]1C(=O)N[C@@H]1C(=O)N[C@H](CC(C)C)C(=O)N[C@H](CC(C)C)C(=O)N(C)[C@H](CC(C)C)C(=O)N[C@@H](CC(C)C)C(=O)N(C)[C@@H](C)C(=O)N[C@@H](CC(C)C)C(=O)N2CCC[C@@H]2C(=O)O[C@@H]1C lists PAMPA -5.42 (log10 cm/s).

Excerpt, the final 2 entries:

{"smiles": "CC(=O)N1CCC[C@H]1C(=O)N(C)[C@@H](CC(C)C)C(=O)N[C@@H]1C(=O)N[C@@H](CC(C)C)C(=O)N(C)[C@H](CC(C)C)C(=O)N[C@H](CC(C)C)C(=O)N[C@@H](C)C(=O)N[C@@H](CC(C)C)C(=O)N2CCC[C@H]2C(=O)O[C@@H]1C", "PAMPA (log10 cm/s)": "-6.68"}
{"smiles": "CC(=O)N1CCC[C@H]1C(=O)N[C@@H]1C(=O)N[C@H](CC(C)C)C(=O)N[C@H](CC(C)C)C(=O)N(C)[C@H](CC(C)C)C(=O)N[C@@H](CC(C)C)C(=O)N(C)[C@@H](C)C(=O)N[C@@H](CC(C)C)C(=O)N2CCC[C@@H]2C(=O)O[C@@H]1C", "PAMPA (log10 cm/s)": "-5.42"}

Source: CycPeptMPDB (Li et al. 2023), which took these values from Kelly et al. 2021, doi:10.1021/jacs.0c06115.